Columns and labels:
[1] = molecular target: Oxysterols receptor LXR-beta (Rattus norvegicus) (UniProt Q62755); assay: Transactivation of rat LXRbeta expressed in HEK293FT cells measured after 14 to 18 hrs by dual-luciferase reporter gene assay relative to T0901317; format: cell-based
[2] = molecular target: Oxysterols receptor LXR-beta (Rattus norvegicus, UniProt Q62755); assay: Transactivation of rat LXRbeta expressed in HEK293FT cells measured after 14 to 18 hrs by dual-luciferase reporter gene assay; format: cell-based

Sequences of proteins named here, by UniProt entry; tags and fusion partners are left off.
UniProt Q62755, whole entry: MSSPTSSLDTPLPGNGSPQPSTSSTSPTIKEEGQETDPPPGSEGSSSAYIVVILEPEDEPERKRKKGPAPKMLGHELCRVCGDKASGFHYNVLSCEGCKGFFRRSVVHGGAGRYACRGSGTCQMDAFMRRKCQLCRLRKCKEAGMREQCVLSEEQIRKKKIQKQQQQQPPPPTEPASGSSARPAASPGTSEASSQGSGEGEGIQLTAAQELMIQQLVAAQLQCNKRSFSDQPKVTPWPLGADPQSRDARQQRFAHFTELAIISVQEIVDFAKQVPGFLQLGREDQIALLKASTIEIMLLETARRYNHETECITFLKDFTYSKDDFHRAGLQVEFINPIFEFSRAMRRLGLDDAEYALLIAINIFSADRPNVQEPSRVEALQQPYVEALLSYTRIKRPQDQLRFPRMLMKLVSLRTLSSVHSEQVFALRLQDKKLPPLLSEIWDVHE

| SMILES | Efficacy [1] | EC50 [2] |
| --- | --- | --- |
| C[C@H](C[C@@H]1CCN(C)C1=O)[C@H]1CC[C@H]2[C@@H]3CC=C4C[C@@H](O)CC[C@]4(C)[C@H]3CC[C@]12C | 0.54% | – |
| C[C@H](C[C@@H]1CCCN(C)C1=O)[C@H]1CC[C@H]2[C@@H]3CC=C4C[C@@H](O)CC[C@]4(C)[C@H]3CC[C@]12C | 0.69% | – |
| O=S(=O)(c1ccccc1)N(CC(F)(F)F)c1ccc(C(O)(C(F)(F)F)C(F)(F)F)cc1 [T091317] | – | 0.03 µM |
| C[C@H](C[C@H]1CCCN(C)C1=O)[C@H]1CC[C@H]2[C@@H]3CC=C4C[C@@H](O)CC[C@]4(C)[C@H]3CC[C@]12C | 117% | – |
| C[C@H](C[C@H]1CCN(C)C1=O)[C@H]1CC[C@H]2[C@@H]3CC=C4C[C@@H](O)CC[C@]4(C)[C@H]3CC[C@]12C | 66% | – |

From ChEMBL document CHEMBL4339203, “Structural requirements of cholenamide derivatives as the LXR ligands” (Bioorg Med Chem Lett, 2019)
